Data: patent US8580780B2 (dated 2013)

Amino acid sequences for entries named in this document (tags omitted).
UniProt P41595, whole entry: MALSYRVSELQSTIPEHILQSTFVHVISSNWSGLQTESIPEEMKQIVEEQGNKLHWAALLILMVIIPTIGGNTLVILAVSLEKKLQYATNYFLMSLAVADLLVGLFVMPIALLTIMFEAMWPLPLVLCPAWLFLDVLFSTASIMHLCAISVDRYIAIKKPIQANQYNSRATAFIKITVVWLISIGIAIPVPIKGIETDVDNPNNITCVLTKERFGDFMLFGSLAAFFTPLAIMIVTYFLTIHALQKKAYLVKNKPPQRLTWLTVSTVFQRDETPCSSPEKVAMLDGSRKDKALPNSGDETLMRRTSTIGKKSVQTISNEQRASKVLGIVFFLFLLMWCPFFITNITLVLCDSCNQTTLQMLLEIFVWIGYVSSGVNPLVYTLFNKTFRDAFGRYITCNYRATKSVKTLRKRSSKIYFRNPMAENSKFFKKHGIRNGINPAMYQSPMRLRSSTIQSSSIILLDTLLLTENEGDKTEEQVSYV
UniProt P28223, whole entry: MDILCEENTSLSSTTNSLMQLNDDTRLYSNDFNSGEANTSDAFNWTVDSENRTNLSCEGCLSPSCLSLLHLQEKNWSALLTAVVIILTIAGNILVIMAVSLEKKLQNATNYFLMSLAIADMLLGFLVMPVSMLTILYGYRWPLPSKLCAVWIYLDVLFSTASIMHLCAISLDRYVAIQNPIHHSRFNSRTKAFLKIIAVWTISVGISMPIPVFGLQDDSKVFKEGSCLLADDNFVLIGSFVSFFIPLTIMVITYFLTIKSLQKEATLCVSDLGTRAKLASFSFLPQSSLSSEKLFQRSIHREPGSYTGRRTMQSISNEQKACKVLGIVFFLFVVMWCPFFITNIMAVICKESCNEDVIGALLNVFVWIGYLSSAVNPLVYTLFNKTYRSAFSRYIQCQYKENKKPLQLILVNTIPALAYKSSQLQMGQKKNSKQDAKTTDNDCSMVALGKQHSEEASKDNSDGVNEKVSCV

How the values were obtained:
human 5-HT2B receptor = human 5-HT2B receptor (Homo sapiens, UniProt P41595); settings: normalized AUC at 5-HT2C / normalized AUC at 5-HT2B, relative to 5-HT
human 5-HT2A receptor = human 5-HT2A receptor (Homo sapiens, UniProt P28223); settings: normalized AUC at 5-HT2C / normalized AUC at 5-HT2A, relative to 5-HT

SMILES: Clc1cccc(N2CCNCC2)c1 [mCPP, meta-chlorophenylpiperazine]
- Selectivity Ratio AUC 2C/2B (human 5-HT2B receptor): 2.1
- Selectivity Ratio AUC 2C/2A (human 5-HT2A receptor): 2.1
